One data set has as its system LNCaP cells. Nature of the data set: Cytotoxicity assessment (Cell-titer-glo cell viability), LNCaP. The following applies: read-out: LNCAP (CC50), 6 days of treatment, vs DMSO.
For the next data set, the system named is VCaP cells. Nature of the data set: Cytotoxicity assessment (Cell-titer-glo cell viability), VCaP. Conditions: read-out: VCaP (CC50), 6 days of treatment, vs DMSO.

As for `CC1(C)C(NC(=O)c2ccc(N3CCN(Cc4cn(C5CCN(c6ccc7nnn(C8CCC(=O)NC8=O)c(=O)c7c6)CC5)nn4)CC3)cc2)C(C)(C)C1Oc1ccc(C#N)c(Cl)c1` (centres unmarked) [Example 105, N-((1r,3r)-3-(3-chloro-4-cyanophenoxy)-2,2,4,4-tetramethylcyclobutyl)-4-(4-((1-(1-(3-(2,6-dioxopiperidin-3-yl)-4-oxo-3,4-dihydrobenzo[d][1,2,3]triazin-6-yl)piperidin-4-yl)-1H-1,2,3-triazol-4-yl)methyl)piperazin-1-yl)benzamide], the cytotoxic concentration (CC50) in the data set on LNCaP cells was 25.9 nM.
On to “N-((1r,3r)-3-(3-chloro-4-cyanophenoxy)-2,2,4,4-tetramethylcyclobutyl)-4-(4-(1-(3-(2,6-dioxopiperidin-3-yl)-4-oxo-3,4-dihydrobenzo[d][1,2,3]triazin-6-yl)azetidine-3-carbonyl)piperazin-1-yl)benzamide [Example 44]”, for which the CC50 with VCaP cells amounted to 25.9 nM.

By CC50 is commonly meant the concentration that lowers cell viability or growth by half.

These data come from patent US20240018123A1, “COMPOUND FOR INHIBITING OR DISINTEGRATING ANDROGEN RECEPTOR, AND PHARMACEUTICAL USE THEREOF” (KOREA RESEARCH INSTITUTE OF CHEMICAL TECHNOLOGY, priority 2020, published 2024).
